Like-named read-outs stand apart in the source and are kept apart here.
Columns and labels:
MAO-B = MAO-B (Rattus norvegicus, UniProt P19643); test: in vivo; details: inhaled or nasal
Description: (§1) Control liquid formulations included vehicle only.
(§2) The animals were acutely administered intranasally and sacrificed 4 hours following drug/vehicle administration. The brain regions, hippocampus and striatum, as well as the small intestine were dissected out. […] In brief, samples were dissected out at 4° C. and homogenized. Homogenates were incubated with [C^14]serotonin for 30 minutes (final concentration 100 μM) as a substrate for MAO-A, or with [C^14]phenylethylamine for 20 minutes (final concentration 100 μM) as a substrate for MAO-B. The radioactivity was determined by liquid- scintillation.

Protein sequences, listed by entry. Tags and fused reporters are not part of them.
UniProt P19643, whole entry: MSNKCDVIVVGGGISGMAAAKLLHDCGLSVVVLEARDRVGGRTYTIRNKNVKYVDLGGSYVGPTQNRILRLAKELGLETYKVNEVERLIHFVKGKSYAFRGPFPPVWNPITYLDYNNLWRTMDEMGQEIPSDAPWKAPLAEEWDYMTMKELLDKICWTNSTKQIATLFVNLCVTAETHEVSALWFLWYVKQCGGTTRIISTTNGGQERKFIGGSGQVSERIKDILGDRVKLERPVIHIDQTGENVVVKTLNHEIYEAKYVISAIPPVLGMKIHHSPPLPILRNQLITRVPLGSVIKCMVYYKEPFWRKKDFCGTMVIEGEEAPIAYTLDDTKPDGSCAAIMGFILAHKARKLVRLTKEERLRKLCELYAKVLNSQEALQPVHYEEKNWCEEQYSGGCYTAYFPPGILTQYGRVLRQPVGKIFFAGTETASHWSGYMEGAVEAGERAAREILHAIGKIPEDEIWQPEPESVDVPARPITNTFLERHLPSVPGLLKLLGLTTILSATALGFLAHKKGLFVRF
UniProt P21396, whole entry: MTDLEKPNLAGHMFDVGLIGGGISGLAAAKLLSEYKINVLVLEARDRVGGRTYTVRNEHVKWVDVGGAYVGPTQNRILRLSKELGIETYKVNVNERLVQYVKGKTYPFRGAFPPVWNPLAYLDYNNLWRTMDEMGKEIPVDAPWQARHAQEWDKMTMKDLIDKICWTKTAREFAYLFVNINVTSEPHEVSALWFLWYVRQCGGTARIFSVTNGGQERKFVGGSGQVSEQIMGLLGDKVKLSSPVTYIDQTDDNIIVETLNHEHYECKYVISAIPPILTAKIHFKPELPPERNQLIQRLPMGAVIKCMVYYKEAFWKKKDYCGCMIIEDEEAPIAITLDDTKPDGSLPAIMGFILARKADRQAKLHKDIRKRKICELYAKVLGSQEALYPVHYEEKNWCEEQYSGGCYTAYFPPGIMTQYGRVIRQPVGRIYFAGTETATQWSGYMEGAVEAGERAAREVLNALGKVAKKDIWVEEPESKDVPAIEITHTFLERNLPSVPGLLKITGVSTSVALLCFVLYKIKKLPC

MAO-A = MAO-A (Rattus norvegicus, UniProt P21396); test: in vivo; details: inhaled or nasal
Description: as §1, §2

inhibition at 0.6 mg/kg (MAO-B; read-out: MAO-B Inhibition, Brain, intranasal, 0.6 mg/kg liquid formulation, 4 h): 96%
inhibition at 0.6 mg/kg (MAO-B; read-out: MAO-B Inhibition, Brain, intranasal, 0.6 mg/kg powder formulation, 4 h): 96%
inhibition at 6 mg/kg (MAO-B; read-out: MAO-B Inhibition, Brain, intranasal, 6 mg/kg liquid formulation, 4 h): 99%
inhibition at 6 mg/kg (MAO-B; read-out: MAO-B Inhibition, Brain, intranasal, 6 mg/kg powder formulation, 4 h): 98%
inhibition at 0.6 mg/kg (MAO-B; read-out: MAO-B Inhibition, Hippocampus, intranasal, 0.6 mg/kg powder formulation, 4 h): 97%
inhibition at 1.5 mg/kg (MAO-B; read-out: MAO-B Inhibition, Hippocampus, intranasal, 1.5 mg/kg powder formulation, 4 h): 98%
inhibition at 6 mg/kg (MAO-B; read-out: MAO-B Inhibition, Hippocampus, intranasal, 6 mg/kg powder formulation, 4 h): 99%
inhibition at 0.6 mg/kg (MAO-B; read-out: MAO-B Inhibition, Liver, intranasal, 0.6 mg/kg liquid formulation, 4 h): 93%
inhibition at 0.6 mg/kg (MAO-B; read-out: MAO-B Inhibition, Liver, intranasal, 0.6 mg/kg powder formulation, 4 h): 95%
inhibition at 1.5 mg/kg (MAO-B; read-out: MAO-B Inhibition, Liver, intranasal, 1.5 mg/kg powder formulation, 4 h): 98%
inhibition at 6 mg/kg (MAO-B; read-out: MAO-B Inhibition, Liver, intranasal, 6 mg/kg liquid formulation, 4 h): 98%
inhibition at 6 mg/kg (MAO-B; read-out: MAO-B Inhibition, Liver, intranasal, 6 mg/kg powder formulation, 4 h): 98%
inhibition at 1.5 mg/kg (MAO-B; read-out: MAO-B Inhibition, Striatum, intranasal, 1.5 mg/kg powder formulation, 4 h (only cell filled in this column)): 98%
inhibition at 6 mg/kg (MAO-A; read-out: MAO-A inhibition, Brain, intranasal, 6 mg/kg powder formulation, 4 h): 96%
inhibition at 0.6 mg/kg (MAO-A; read-out: MAO-A inhibition, Hippocampus, intranasal, 0.6 mg/kg powder formulation, 4 h): 66%
inhibition at 6 mg/kg (MAO-A; read-out: MAO-A inhibition, Hippocampus, intranasal, 6 mg/kg powder formulation, 4 h): 93%
inhibition at 1.5 mg/kg (MAO-A; read-out: MAO-A inhibition, Liver, intranasal, 1.5 mg/kg powder formulation, 4 h): 77%
inhibition at 6 mg/kg (MAO-A; read-out: MAO-A inhibition, Liver, intranasal, 6 mg/kg powder formulation, 4 h): 94%
inhibition at 0.6 mg/kg (MAO-A; read-out: MAO-A inhibition, Striatum, intranasal, 0.6 mg/kg liquid formulation, 4 h): 35%
inhibition at 1.5 mg/kg (MAO-A; read-out: MAO-A inhibition, Striatum, intranasal, 1.5 mg/kg powder formulation, 4 h): 67%
inhibition at 6 mg/kg (MAO-A; read-out: MAO-A inhibition, Striatum, intranasal, 6 mg/kg liquid formulation, 4 h): 94%
Compound: C#CCN[C@@H]1CCc2ccccc21 [Rasagiline, N-propargyl-1-(R)-aminoindan]

Reference: patent publication US20170151192A1, “METHODS, COMPOSITIONS AND DEVICES FOR TREATMENT OF MOTOR AND DEPRESSION SYMPTOMS ASSOCIATED WITH PARKINSON'S DISEASE” (N TO B LTD., priority 2013, published 2017)
